Test results from publication PMC10444810, “Induction of open-form bile canaliculus formation by hepatocytes for evaluation of biliary drug excretion” (Communications Biology, 2023).

System: icHep and PXB-cells monolayers

tetramethylrhodamine-dextran [TD4] was tested, and the “permeability in the icHep monolayer compared to the control” value was “decreased significantly” and the “permeation from the donor to receiver chambers” value was “Minimal permeation”.
